This assay concerns the target Muscarinic acetylcholine receptor M1 (Rattus norvegicus, UniProt P08482). Put plainly: Binding affinity at Muscarinic acetylcholine receptor M1 in Rat brain homogenate by [3H]pirenzepine displacement. The format is tissue-based.

Protein sequences, listed by entry. Tags and fused reporters are not part of them. Lines headed by an entry give the natural chain unless they say otherwise; changes in a name come on top.
UniProt P08482: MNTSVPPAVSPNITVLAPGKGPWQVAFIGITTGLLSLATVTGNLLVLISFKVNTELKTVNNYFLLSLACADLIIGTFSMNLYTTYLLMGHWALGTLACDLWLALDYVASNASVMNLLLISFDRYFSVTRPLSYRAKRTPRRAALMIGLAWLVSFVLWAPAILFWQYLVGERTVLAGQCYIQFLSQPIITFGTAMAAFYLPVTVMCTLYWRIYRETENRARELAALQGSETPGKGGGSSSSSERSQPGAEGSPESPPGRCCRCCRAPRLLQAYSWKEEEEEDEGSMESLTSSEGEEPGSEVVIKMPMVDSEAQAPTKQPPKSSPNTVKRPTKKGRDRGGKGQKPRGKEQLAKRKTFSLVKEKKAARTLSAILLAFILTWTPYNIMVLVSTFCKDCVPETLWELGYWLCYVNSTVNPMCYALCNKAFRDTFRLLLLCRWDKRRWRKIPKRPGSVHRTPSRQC

Consider `CN1C2CCC1CC(OC(c1ccc(F)cc1)c1ccc(F)cc1)C2` (stereo unspecified) [DIFLUOROBENZTROPINE], for which the inhibitory constant (Ki) was 0.0116 µM.

Broadly, the Ki is the dissociation constant of the complex between target and ligand, obtained from inhibition or displacement. A higher Ki goes with a looser hold on the target.

The record behind these values is ChEMBL document CHEMBL1133588 (J Med Chem, 2000).
